Experimental data: PubChem BioAssay (NCI)
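96-well plates; 48 h exposure; 5 concentrations. Endpoints by linear interpolation between flanking doses. Not reached: highest tested concentration assigned. TGI: concentration producing complete growth inhibition.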

Columns and labels:
Assay in all cases: DTP human tumour cell line panel, 48 h
SF-268 CNS = tested on: SF-268 CNS
MDA-MB-231 breast = tested on: MDA-MB-231 breast
SF-539 CNS = tested on: SF-539 CNS
SF-295 CNS = tested on: SF-295 CNS
COLO 205 colon = tested on: COLO 205 colon
SNB-75 CNS = tested on: SNB-75 CNS
UO-31 renal = tested on: UO-31 renal
OVCAR-3 ovarian = tested on: OVCAR-3 ovarian
UACC-62 melanoma = tested on: UACC-62 melanoma
SK-MEL-5 melanoma = tested on: SK-MEL-5 melanoma
MDA-N = tested on: MDA-N
DU-145 prostate = tested on: DU-145 prostate
OVCAR-5 ovarian = tested on: OVCAR-5 ovarian
SN12C renal = tested on: SN12C renal
IGROV1 ovarian = tested on: IGROV1 ovarian
OVCAR-4 ovarian = tested on: OVCAR-4 ovarian
CCRF-CEM leukemia = tested on: CCRF-CEM leukemia
HCT-15 colon = tested on: HCT-15 colon
HT29 colon = tested on: HT29 colon
SW-620 colon = tested on: SW-620 colon
SK-OV-3 ovarian = tested on: SK-OV-3 ovarian
786-0 renal = tested on: 786-0 renal
HS 578T breast = tested on: HS 578T breast
NCI-H460 lung = tested on: NCI-H460 lung
HL-60(TB) leukemia = tested on: HL-60(TB) leukemia
MALME-3M melanoma = tested on: MALME-3M melanoma
U251 CNS = tested on: U251 CNS
BT-549 breast = tested on: BT-549 breast
PC-3 prostate = tested on: PC-3 prostate
HOP-62 NSCLC = tested on: HOP-62 NSCLC
TK-10 renal = tested on: TK-10 renal
SK-MEL-28 melanoma = tested on: SK-MEL-28 melanoma
MOLT-4 leukemia = tested on: MOLT-4 leukemia
MCF7 breast = tested on: MCF7 breast
HCT-116 colon = tested on: HCT-116 colon
RPMI-8226 leukemia = tested on: RPMI-8226 leukemia
OVCAR-8 ovarian = tested on: OVCAR-8 ovarian
MDA-MB-435 = tested on: MDA-MB-435
NCI/ADR-RES ovarian = tested on: NCI/ADR-RES ovarian
ACHN renal = tested on: ACHN renal
LOX IMVI melanoma = tested on: LOX IMVI melanoma
SNB-19 CNS = tested on: SNB-19 CNS
KM12 colon = tested on: KM12 colon
SR leukemia = tested on: SR leukemia
A549 NSCLC = tested on: A549 NSCLC
NCI-H23 lung = tested on: NCI-H23 lung
NCI-H226 lung = tested on: NCI-H226 lung
K-562 leukemia = tested on: K-562 leukemia

Measured: TGI

CCOP1(=O)N=C(NC#N)N(C)C1(C)C (stereo not drawn)
> 100 µM: all assays above
